How the values were obtained:
[1] = tested on: BMP-response element (BMP-dependent transcriptional activity) in C2C12 cells; experiment: BMP-response element luciferase reporter in C2C12 cells; format: cell-based; settings: BMP-2 50 ng/ml, 48 hrs
Source text: (§1) As described above, BMP-2 is a well-known osteogenic factor and is used clinically as a bone-inductive agent. It has also been shown that osteogenic effects of strains, cholesterol-lowering drugs, involve up-regulation of endogenous BMP-2 (Chowdhury J R et al., Science 254:1802-05 (1991)). Thus, Applicants next examined if stimulatory effects of Ccdc80 on bone formation might involve actions/activities of BMP-2. To do this, C2C12 cells were transiently transfected with plasmids containing either a BMP-response element fused to a luciferase reporter gene (to monitor BMP-dependent transcriptional activity) or a response element containing binding sites for the TCF/LEF transcription factors fused to a luciferase reporter gene (to monitor β-catenin-dependent transcriptional activity). After transfection, cells were infected with an adenovirus encoding either GFP or human Ccdc80 for 16 hrs, after which they were allowed to differentiate in low-mitogenic condition (reduction of serum from 10% to 1% FBS) in the absence or presence of BMP-2 (50 ng/ml) for 48 hrs. BMP- and β-catenin-mediated transcription were evaluated by measuring luciferase activity, and results were expressed relative to β-galactosidase (control).

[2] = tested on: β-catenin-mediated transcriptional activity in C2C12 cells; experiment: TCF/LEF luciferase reporter (β-catenin-dependent transcription) in C2C12 cells; format: cell-based; settings: BMP-2, C2C12 cells
Source text: as §1
Applicants then determined the effect of Ccdc80 on β-catenin-mediated transcription, a known component of bone remodeling in a large number of experimental paradigms. […]

B1: BMP-2: bone morphogenetic protein-2, well-known osteogenic factor used clinically as a bone-inductive agent (protein, UniProt P12643 283-396, looked up)
Bone morphogenetic protein 2: QAKHKQRKRLKSSCKRHPLYVDFSDVGWNDWIVAPPGYHAFYCHGECPFPLADHLNSTNHAIVQTLVNSVNSKIPKACCVPTELSAISMLYLDENEKVVLKNYQDMVVEGCGCR
With B1 the “transcriptional activity of the BMP-response element” value [1] was “dramatically enhanced” and the β-catenin-mediated transcriptional activity [2] was “blunts”.

— patent US20080241129A1, “ADIPOCYTE SECRETED PROTEIN CCDC80 IS A POTENT STIMULATOR OF BONE FORMATION” (Wyeth, priority 2007, published 2008)
